In patent publication US20150038588A1, “COMPOSITIONS AND METHODS OF TREATMENT OF STATUS EPILEPTICUS” (published 2015):

Tests used:
pilocarpine-induced ESE = assay: lithium-pilocarpine electrographic status epilepticus (ESE) model, EEG gamma-band power
[1] = system: pilocarpine-induced convulsive SE seizures; conditions: cited from earlier work
[2] = system: electrically- and chemically-induced seizures; conditions: acute seizure models based on maximum electroshock and metrazol; cited from earlier work
[3] = in vivo; cited from earlier work
[4] = administered 30 min after first pilocarpine-induced seizure

## CN1C(=O)CN=C(c2ccccc2)c2cc(Cl)ccc21
pilocarpine-induced ESE; 10-100 mg/kg, 30 min after first motor seizure
  effect on ESE: no consistent detectable effect on ESE

## NC(=O)N1c2ccccc2C=Cc2ccccc21
[1]; [4]
  ED50, block of pilocarpine-induced convulsive seizures: 50 mg/kg

## CCC(C)C(CC)C(N)=O (stereo not drawn)
[1]; 0 min (SE onset), 65 mg/kg
  efficacy against convulsive seizures: showed efficacy
[2]
  ED50 compared with SPD: qualitatively similar to SPD
[3]
  teratogenicity compared with VPA: distinctly less teratogenic than VPA
pilocarpine-induced ESE; 180 mg/kg, 30 min after first motor seizure
  deleterious effects (e.g. mortality): no obvious deleterious effects

## CCCC(C(N)=O)C(C)CC (racemic)
[1]; [4]
  ED50, block of pilocarpine-induced convulsive seizures: 84 mg/kg
  ED97, block of pilocarpine-induced convulsive seizures: 149 mg/kg
pilocarpine-induced ESE; under some conditions (FIG. 3A-C)
  time of rebound effect: 7 to 10 h
